{"sequences": {"note": "Chains of the proteins cited; added tags and fusions are not shown.", "UniProt Q96RJ0, whole entry": "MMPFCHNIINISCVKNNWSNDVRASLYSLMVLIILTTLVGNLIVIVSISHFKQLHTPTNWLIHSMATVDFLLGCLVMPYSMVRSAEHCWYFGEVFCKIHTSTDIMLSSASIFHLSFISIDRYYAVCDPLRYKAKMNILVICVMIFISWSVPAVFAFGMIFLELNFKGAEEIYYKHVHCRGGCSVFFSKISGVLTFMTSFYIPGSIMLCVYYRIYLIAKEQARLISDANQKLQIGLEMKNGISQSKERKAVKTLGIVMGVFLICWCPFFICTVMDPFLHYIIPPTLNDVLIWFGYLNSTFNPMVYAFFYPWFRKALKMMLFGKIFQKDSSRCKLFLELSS"}, "source": "PubChem BioAssay AID624466", "about": "(The Scripps Research Institute Molecular Screening Center, 2012)", "note": "This is a selection; strong and weak results do not stand in their true shares. Some of these compounds have results that are not shown, active ones among them. Activity calls are given as the source filed them.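 How the source made its calls: active means inhibition above a per-plate cutoff, the mean inhibition of test compounds on that plate plus 3 SD (cut at about 49% in these data); inactive means the rest.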"}
{"molecular_target": "Trace amine-associated receptor 1 (Homo sapiens) (UniProt Q96RJ0)", "test": "blockers of beta-PEA-driven TAAR1 calcium signal – Fluo-8 calcium fluorescence, CHO RD-HGA16 cells, primary screen (AID 624466);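 further: 0% = DMSO plus EC80 beta-PEA response and 100% = DMSO alone without agonist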", "settings": "CHO RD-HGA16 TAAR1, Fluo-8 calcium fluorescence, antagonist; at 3 µM; active compounds read high"}
{"smiles": "COc1ccc(C(=O)NCC2(N(C)C)CCCCC2)cc1", "inhibition": "inactive: -10.7%"}
{"smiles": "Cc1cc(C(=O)NCC2(N3CCCCC3)CCCCC2)ccc1[N+](=O)[O-]", "inhibition": "inactive: -19.3%"}
{"smiles": "CCN1CCCC(OC(=O)C2(O)c3ccccc3C=Cc3ccccc32)C1", "note": "(stereo unspecified)", "inhibition": "inactive: -6.24%"}
{"smiles": "O=C(NCC1(N2CCCCC2)CCCCC1)c1cccc(Br)c1", "inhibition": "inactive: -0.72%"}
{"smiles": "C=CCN1CCN(CCOC(=O)C(O)(c2ccccc2)c2ccccc2)CC1", "inhibition": "inactive: 2.87%"}
{"smiles": "O=C(NCC1(N2CCCCC2)CCCCC1)c1cc(F)c(F)cc1Cl", "inhibition": "inactive: -7.13%"}
{"smiles": "Cc1ccccc1C(=O)NCC1(N2CCCCC2)CCCCC1", "inhibition": "inactive: -0.09%"}
{"smiles": "CN(C)C1CCCC1OC(=O)C(O)(c1ccccc1)c1ccccc1", "note": "(stereo unspecified)", "inhibition": "inactive: -7.39%"}
{"smiles": "CN(C)c1ccc(C(=O)NCC2(N(C)C)CCCCC2)cc1", "inhibition": "inactive: -10.5%"}
{"smiles": "Cc1ccc(C(=O)NCC2(N3CCCCC3)CCCCC2)cc1", "inhibition": "inactive: 3.17%"}
{"smiles": "CCN(CC)CC(C)C(C)OC(=O)C(O)(c1ccccc1)c1ccccc1", "note": "(stereo unspecified)", "inhibition": "inactive: -20.4%"}
{"smiles": "COc1cc(SC)ccc1C(=O)NCC1(N(C)C)CCCCC1", "inhibition": "inactive: -0.64%"}
{"smiles": "CC(C)N1C(=O)CC2(CCN(CCOC(=O)C(O)(c3ccccc3)c3ccccc3)CC2)C1=O", "inhibition": "inactive: 0.14%"}
{"smiles": "CN1[C@@H]2CC[C@H]1CC(OC(=O)C(O)(c1ccccc1)c1ccccc1)C2", "note": "(stereo partly specified)", "inhibition": "inactive: 1.5%"}
{"smiles": "O=C(NCC1(N2CCCCC2)CCCCC1)c1cc([N+](=O)[O-])ccc1Cl", "inhibition": "inactive: -23.5%"}
{"smiles": "CC(C)Oc1ccc(C(=O)NCC2(N(C)C)CCCCC2)cc1", "inhibition": "inactive: -6.29%"}
{"smiles": "O=C(OCCN1CCCC1)C(O)(c1ccccc1)c1ccccc1", "inhibition": "inactive: -3.72%"}
{"smiles": "CN(C)c1cccc(C(=O)NCC2(N(C)C)CCCCC2)c1", "inhibition": "inactive: -11.8%"}
{"smiles": "C=C(C)C#CC(O)(C(=O)OC1CCN(C)CC1)c1ccccc1", "note": "(stereo unspecified)", "inhibition": "inactive: -20.4%"}
{"smiles": "COc1ccc(Br)c(C(=O)NCC2(N3CCCCC3)CCCCC2)c1", "inhibition": "inactive: -9.04%"}
{"smiles": "O=C(OC1CN2CCC1CC2)C(CO)(c1ccccc1)c1ccccc1", "note": "(stereo unspecified)", "inhibition": "inactive: 4.36%"}
{"smiles": "O=C(NCC1(N2CCCCC2)CCCCC1)c1cccc(Cl)c1", "inhibition": "inactive: 1.18%"}
{"smiles": "COc1cccc(C(=O)NCC2(N3CCCCC3)CCCCC2)c1", "inhibition": "inactive: -3.16%"}
{"smiles": "COc1ccc(Cl)cc1C(=O)NCC1(N(C)C)CCCCC1", "inhibition": "inactive: -17%"}
{"smiles": "COc1cc(C(=O)NCC2(N(C)C)CCCCC2)c([N+](=O)[O-])cc1OC", "inhibition": "inactive: -6.23%"}
{"smiles": "CN(C)C1(CNC(=O)c2ccc(Br)cc2)CCCCC1", "inhibition": "inactive: 3.33%"}
